Tested on: T lymphocyte transformation
Assay: ConA-induced T lymphocyte transformation of spleen cells from treated mice (MTT)
Assay type: in vivo
Conditions: 3 × 10^5 IU/kg/d i.p. for 28 days, BALB/c mice
Description: The BALB/c mice were randomly divided into CMS017 dose I group (200 μg/kg/day), CMS017 dose II group (50 μg/kg/day), recombinant human IL (rhIL)-2 group (3×10^5 IU/kg/day), and saline groups (0.5 ml/day). Twelve mice per group. Test substances were all dissolved in saline and injected intraperitoneally at (i.p.) 0.5 ml/day for 28 continuous days, once per day. The day after the last test substance administration, the mice were sacrificed by cervical dislocation. The spleen was isolated aseptically and manually dispersed in cold D-Hank's solution using an injection needle. The dispersed cell suspension was further sieved through a 100 gauge 150 μm diameter stainless steel sieve. After centrifugation at 200 g for 10 minutes, the supernatant was discarded. The cell pellet was resuspended in 10 volumes of Tris-NH4Cl buffer and then incubated for 10 minutes at room temperature. The suspended cells were collected by centrifugation at 150 g for 10 minutes. The cells were washed 2-4 times with cold D-Hank's solution by resuspending and collecting by centrifugation as described above. The washed cells were then diluted to the desired cell densities in RPMI-1640 culture medium, containing 10% fetal bovine serum. […] An ELISA reader referenced at 630 nm was used to obtain the OD570 nm of each well. […]

IL-2: recombinant human IL (rhIL)-2, positive control group
stimulation index (X ± SD): 2.71 ± 0.35
